Source: patent US6344444B1 (Nutrition 21, priority 1997, dated 2002)
Where two headings read alike, the source gives them in different places.

Legend:
[1] = human volunteer, 8 g/l solution, three one-cup servings daily for three days, oral; third-day 24-hour urine

arginine-silicate-inositol complex [arginine silicate]
level of silica (SiO2) (aqueous solution 10 g/l, diluted to 0.5 g/L for measurement, 1 hour): 11.8% | level of silica (SiO2) (aqueous solution 10 g/l, diluted to 0.5 g/L for measurement, 2 hours): 10.8% | level of silica (SiO2) (aqueous solution 10 g/l, diluted to 0.5 g/L for measurement, 24 hours): 9.2% | level of silica (SiO2) (aqueous solution 10 g/l, diluted to 0.5 g/L for measurement, time 0): 17.5% | level of silica (SiO2) (aqueous solution of 0.5 g/l): 17.5% | stability of silica level (aqueous solution of 0.5 g/l, after 24 hours): stable | silicon in third-day urine as share of the silicon ingested daily [1]: approximately 25% | urinary silicon output, increase from baseline [1]: more than tenfold
